Amino acid sequences for entries named in this document (tags omitted). Chains listed by the source or under a name are the forms on record and can include a tag or linker. Residues count along the entry.
UniProt P00533, 25-1210: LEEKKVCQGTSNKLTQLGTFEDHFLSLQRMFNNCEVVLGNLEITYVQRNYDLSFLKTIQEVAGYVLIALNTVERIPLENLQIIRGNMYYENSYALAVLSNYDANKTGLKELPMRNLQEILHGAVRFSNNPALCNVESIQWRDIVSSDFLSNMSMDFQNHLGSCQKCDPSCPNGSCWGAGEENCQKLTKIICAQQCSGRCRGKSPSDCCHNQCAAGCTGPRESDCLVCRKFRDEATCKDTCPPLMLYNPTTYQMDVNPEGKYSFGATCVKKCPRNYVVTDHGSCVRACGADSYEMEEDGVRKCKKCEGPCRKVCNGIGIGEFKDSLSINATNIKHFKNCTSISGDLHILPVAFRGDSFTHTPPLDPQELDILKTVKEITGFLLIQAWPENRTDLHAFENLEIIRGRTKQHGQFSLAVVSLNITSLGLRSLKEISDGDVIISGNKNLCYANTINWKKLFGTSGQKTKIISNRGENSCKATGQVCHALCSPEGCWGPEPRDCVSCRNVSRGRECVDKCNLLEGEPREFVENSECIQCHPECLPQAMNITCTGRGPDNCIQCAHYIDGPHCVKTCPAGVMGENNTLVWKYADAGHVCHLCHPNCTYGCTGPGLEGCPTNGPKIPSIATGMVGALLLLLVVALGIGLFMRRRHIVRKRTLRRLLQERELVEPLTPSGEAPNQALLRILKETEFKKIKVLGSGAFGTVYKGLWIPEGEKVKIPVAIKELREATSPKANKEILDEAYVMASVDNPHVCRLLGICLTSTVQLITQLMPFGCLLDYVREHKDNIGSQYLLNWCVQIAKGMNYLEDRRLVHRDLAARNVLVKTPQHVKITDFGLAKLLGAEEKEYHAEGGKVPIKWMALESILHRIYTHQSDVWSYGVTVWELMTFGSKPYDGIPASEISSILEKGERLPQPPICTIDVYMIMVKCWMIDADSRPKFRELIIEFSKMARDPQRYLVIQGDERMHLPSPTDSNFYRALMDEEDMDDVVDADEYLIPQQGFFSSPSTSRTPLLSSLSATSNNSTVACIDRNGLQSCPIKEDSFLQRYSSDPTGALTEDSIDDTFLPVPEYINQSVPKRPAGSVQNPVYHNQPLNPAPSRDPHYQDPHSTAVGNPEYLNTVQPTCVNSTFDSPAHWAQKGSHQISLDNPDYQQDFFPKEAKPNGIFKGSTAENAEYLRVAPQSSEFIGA
UniProt P00533, with tags, fused parts or gaps INS773NPH: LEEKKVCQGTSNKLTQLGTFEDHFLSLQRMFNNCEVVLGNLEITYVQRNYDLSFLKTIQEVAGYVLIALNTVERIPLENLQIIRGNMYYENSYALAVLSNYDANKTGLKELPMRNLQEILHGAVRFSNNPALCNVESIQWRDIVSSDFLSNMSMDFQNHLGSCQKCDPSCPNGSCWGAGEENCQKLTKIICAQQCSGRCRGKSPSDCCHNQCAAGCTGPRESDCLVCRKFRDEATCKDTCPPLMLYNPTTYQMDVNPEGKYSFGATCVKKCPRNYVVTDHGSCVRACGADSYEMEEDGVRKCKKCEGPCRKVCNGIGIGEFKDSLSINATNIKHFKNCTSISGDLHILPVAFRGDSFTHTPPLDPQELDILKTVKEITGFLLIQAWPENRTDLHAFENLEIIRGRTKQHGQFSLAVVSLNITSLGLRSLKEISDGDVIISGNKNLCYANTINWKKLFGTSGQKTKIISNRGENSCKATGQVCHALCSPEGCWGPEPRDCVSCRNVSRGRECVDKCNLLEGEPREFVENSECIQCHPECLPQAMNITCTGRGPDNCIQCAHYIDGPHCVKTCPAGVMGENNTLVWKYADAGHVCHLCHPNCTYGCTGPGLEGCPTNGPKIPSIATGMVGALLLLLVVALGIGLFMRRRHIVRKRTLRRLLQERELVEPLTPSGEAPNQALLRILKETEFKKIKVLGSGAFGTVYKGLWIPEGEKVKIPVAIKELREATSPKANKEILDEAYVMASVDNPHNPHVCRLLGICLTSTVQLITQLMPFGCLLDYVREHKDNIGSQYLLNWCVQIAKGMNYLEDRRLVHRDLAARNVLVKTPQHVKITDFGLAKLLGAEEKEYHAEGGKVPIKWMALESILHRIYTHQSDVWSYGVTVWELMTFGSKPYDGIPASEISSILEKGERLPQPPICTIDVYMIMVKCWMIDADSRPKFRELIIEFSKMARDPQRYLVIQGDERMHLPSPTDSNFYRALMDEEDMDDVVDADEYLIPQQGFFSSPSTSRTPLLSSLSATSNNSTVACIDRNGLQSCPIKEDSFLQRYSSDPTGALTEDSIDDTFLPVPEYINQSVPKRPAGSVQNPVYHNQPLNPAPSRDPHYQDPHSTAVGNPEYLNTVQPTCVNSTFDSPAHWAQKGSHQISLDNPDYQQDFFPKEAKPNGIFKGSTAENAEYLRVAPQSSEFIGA
UniProt P00533, with tags, fused parts or gaps INS769ASV: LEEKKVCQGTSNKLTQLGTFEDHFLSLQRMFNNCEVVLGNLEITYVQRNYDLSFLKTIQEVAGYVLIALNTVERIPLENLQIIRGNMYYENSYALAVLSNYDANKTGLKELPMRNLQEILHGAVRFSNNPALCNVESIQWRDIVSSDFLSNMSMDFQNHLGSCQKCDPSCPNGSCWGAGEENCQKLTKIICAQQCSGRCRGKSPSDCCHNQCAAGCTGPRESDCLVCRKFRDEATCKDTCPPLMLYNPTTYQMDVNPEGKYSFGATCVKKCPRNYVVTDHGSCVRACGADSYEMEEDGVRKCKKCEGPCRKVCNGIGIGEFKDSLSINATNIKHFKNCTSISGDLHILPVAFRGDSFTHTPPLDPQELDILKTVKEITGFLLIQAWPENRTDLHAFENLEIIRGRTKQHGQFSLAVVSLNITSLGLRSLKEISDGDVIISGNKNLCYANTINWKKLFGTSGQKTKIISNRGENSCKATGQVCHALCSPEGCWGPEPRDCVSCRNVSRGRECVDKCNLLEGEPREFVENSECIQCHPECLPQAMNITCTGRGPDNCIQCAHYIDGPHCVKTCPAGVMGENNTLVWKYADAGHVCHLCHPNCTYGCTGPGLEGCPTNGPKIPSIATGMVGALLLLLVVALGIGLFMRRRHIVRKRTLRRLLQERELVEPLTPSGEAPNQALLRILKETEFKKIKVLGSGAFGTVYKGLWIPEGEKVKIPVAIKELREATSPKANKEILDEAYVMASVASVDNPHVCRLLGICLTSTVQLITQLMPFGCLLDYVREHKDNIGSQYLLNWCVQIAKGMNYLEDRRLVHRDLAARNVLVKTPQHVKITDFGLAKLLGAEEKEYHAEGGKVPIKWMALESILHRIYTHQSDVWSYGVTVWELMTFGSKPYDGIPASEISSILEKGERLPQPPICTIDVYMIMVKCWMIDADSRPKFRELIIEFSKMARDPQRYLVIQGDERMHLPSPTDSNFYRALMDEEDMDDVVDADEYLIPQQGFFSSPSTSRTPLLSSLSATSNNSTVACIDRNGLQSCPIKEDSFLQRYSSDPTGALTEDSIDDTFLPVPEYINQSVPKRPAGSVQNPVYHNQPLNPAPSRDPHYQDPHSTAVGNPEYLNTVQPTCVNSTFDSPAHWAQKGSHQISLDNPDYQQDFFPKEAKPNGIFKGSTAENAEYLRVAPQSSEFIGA
UniProt P00533, 25-1210 T790M/L858R: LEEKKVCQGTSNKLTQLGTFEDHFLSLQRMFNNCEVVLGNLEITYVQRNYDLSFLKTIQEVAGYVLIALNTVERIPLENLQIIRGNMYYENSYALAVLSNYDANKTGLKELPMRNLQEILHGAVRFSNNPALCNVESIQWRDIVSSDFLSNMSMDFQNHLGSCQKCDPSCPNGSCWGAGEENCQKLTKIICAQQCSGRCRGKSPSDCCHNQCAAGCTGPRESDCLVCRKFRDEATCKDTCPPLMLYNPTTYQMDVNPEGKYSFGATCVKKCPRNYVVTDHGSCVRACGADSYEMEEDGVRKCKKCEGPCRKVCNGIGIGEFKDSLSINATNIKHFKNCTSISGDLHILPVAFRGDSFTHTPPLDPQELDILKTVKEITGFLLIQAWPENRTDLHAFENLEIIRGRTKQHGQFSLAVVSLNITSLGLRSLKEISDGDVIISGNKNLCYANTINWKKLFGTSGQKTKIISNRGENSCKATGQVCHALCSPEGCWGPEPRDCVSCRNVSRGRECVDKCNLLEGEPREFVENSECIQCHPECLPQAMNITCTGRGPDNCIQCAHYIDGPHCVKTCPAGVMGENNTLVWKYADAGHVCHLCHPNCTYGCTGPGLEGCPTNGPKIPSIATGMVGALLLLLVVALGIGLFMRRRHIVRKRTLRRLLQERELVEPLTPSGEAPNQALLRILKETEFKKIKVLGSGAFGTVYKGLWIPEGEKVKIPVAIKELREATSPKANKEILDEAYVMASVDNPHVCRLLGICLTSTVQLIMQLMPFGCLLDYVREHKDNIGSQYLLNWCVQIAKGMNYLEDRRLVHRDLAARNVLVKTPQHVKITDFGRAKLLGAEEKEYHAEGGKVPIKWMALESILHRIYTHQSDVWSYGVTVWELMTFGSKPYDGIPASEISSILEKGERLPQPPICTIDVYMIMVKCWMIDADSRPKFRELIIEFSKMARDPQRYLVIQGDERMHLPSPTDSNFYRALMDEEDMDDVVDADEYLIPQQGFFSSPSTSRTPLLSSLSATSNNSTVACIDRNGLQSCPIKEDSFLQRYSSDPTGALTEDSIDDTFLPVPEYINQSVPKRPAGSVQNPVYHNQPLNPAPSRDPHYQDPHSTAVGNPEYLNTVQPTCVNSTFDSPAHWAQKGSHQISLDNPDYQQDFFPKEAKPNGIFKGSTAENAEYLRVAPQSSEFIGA

According to patent US20230293535A1, “ERBB/BTK INHIBITORS” (Dizal (Jiangsu) Pharmaceutical Co., Ltd., priority 2018, published 2023):

Assays:
Assay type in all cases: cell-based
WT EGFR = molecular target: T1, WT EGFR (Homo sapiens, UniProt P00533); experiment: WT EGFR cellular phosphorylation inhibition in A-431 (hEGF stimulated, MSD); settings: A431 cells, 4 h compound, then 100 ng/ml hEGF 10 min;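 note: electrochemiluminescence read-out of EGFR Tyr1068 phosphorylation expressed as ratio to total EGFR, cells kept in medium with 1% FBS, compounds tested as a concentration series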
T1 construct: host or cells: A-431

[1] = molecular target: T2, human EGFR exon 20 H773_V774insNPH (Homo sapiens, UniProt P00533, INS773NPH); experiment: EGFR Exon20 NPH insertion cellular phosphorylation inhibition (MSD pEGFR Y1068/total EGFR); settings: Ba/F3 EGFR NPH ins cells, 4 h compound, p-EGFR(Y1068)/total EGFR;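 note: IL3-independent Ba/F3 cells with constitutively phosphorylated EGFR, compound exposure at 37 °C under 5% CO2, electrochemiluminescent MSD measurement of the p-EGFR to total EGFR ratio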
T2 construct: host or cells: Ba/F3

[2] = molecular target: T3, human EGFR exon 20 V769_D770insASV (Homo sapiens, UniProt P00533, INS769ASV); experiment: EGFR Exon20 ASV insertion cellular phosphorylation inhibition (MSD pEGFR Y1068/total EGFR); settings: Ba/F3 EGFR ASV ins cells, 4 h compound, p-EGFR(Y1068)/total EGFR;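 note: electrochemiluminescent readout on an MSD SECTOR Imager, IL3-independent transduced cells in medium with 1% FBS, compound concentration series at 37 °C and 5% CO2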
T3 construct: expressed in transfected cells; host or cells: Ba/F3 (DSMZ ACC-300), lentiviral transduction, puromycin selection, IL3 depletion

EGFR L858R&T790M = molecular target: T4, EGFR L858R&T790M (Homo sapiens, UniProt P00533, L858R/T790M); experiment: EGFR L858R and T790M cellular phosphorylation inhibition in NCI-H1975 (MSD); settings: NCI-H1975 cells, 4 h compound, p-EGFR(Y1068)/total EGFR; read-out: EGFR L858R and T790M mutation IC50;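 note: phosphorylated and total EGFR detected by electrochemiluminescence, cells exposed to compound in medium containing 1% FBS at 37 °C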
T4 construct: host or cells: NCI-H1975

Compound: Cc1cc(C(=O)Nc2nc3cccc(Cl)c3n2[C@@H]2CCCCN(C(=O)/C=C/CN(C)C)C2)ccn1 [EGF816, reference compound]
- IC50 (WT EGFR): 505 nM
- IC50 [1]: 368 nM
- IC50 [2]: 291 nM
- IC50 (EGFR L858R&T790M): 5 nM
